Laboratory results from patent publication US9394263B2, “Substituted hetero-azepinones” (priority 2012, dated 2016).
Structures can show the parent of a compound that is named as a salt. Where two headings read alike, the source gives them in different places.

By UniProt entry, the sequences of proteins in these tests, tags left out. Chains listed by the source or under a name are the forms on record and can include a tag or linker. Residues count along the entry.
UniProt P98170, other isoform, or with tags, fused parts or gaps, stated change not applied: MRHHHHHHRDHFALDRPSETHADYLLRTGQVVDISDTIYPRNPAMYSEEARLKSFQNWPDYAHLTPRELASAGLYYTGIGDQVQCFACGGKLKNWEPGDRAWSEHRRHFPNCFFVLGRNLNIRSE
UniProt P98170, 241-356 with tags or gaps limits assumed: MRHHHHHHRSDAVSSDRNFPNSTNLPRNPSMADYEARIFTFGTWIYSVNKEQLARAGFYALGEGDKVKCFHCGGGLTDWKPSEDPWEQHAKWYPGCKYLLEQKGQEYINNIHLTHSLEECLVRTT

What was measured:
BIR2 domain of XIAP = BIR2 domain of XIAP (Homo sapiens (Human), UniProt P98170, C202A/C213G); experiment: TR-FRET assay for BIR2: inhibition of binding of XIAP BIR2 domain to Peptide A (SMAC-derived peptide);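 further: percent inhibition measured across a concentration series of each compound, from which the IC50 was derived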
Protocol: TR-FRET Assay for BIR2 and BIR3
Percentage of inhibition at each concentration was determined to generate an IC50 value for each test compound.

BIR3 domain of XIAP = BIR3 domain of XIAP (Homo sapiens (Human), UniProt P98170); experiment: TR-FRET assay for BIR3: inhibition of binding of XIAP BIR3 domain to Peptide A (SMAC-derived peptide)

SMILES	IC50 (BIR2 domain of XIAP)	IC50 (BIR3 domain of XIAP)	IC50 (BIR2 domain of XIAP; read-out: BIR2 IC50)
CN[C@@H](C)C(=O)N[C@@H]1C(=O)N(Cc2c(C)ccc3ccccc23)c2ccccc2OC12CCOCC2 [Example 1q]	634 nM		
CN[C@@H](C)C(=O)N[C@H]1COc2ccccc2N(Cc2c(OC)ccc3cc(Br)ccc23)C1=O [Example 29, (S)-N-[(S)-9-(6-Bromo-2-methoxy-naphthalen-1-ylmethyl)-8-oxo-6,7,8,9-tetrahydro-5-oxa-9-aza-benzocyclohepten-7-yl]-2-methylamino-propionamide trifluoroacetate]	101 nM		
CN[C@@H](C)C(=O)N[C@H]1COc2ccccc2N(Cc2ccc(Br)c3ccccc23)C1=O [Example 29a]	676 nM		
CN[C@@H](C)C(=O)N[C@H]1COc2ccccc2N(Cc2ccccc2OC)C1=O [Example 29c]	5120 nM		
COc1ccc2cc(Br)ccc2c1CN1C(=O)[C@@H](NC(=O)[C@@H](N)[C@@H](C)O)COc2cc(C)ccc21 [Example 37, (2S,3R)-2-Amino-N-[(S)-9-(7-bromo-3-methoxy-naphthalen-2-ylmethyl)-3-methyl-8-oxo-6,7,8,9-tetrahydro-5-oxa-9-aza-benzocyclohepten-7-yl]-3-hydroxy-butyramide trifluoracetate]	7080 nM		
COc1ccc2cc(Br)ccc2c1CN1C(=O)[C@@H](NC(=O)[C@@H](N)[C@H](C)O)COc2cc(C)ccc21 [Example 38, (2S,3S)-2-Amino-N-[(S)-9-(7-bromo-3-methoxy-naphthalen-2-ylmethyl)-3-methyl-8-oxo-6,7,8,9-tetrahydro-5-oxa-9-azabenzocyclohepten-7-yl]-3-hydroxy-butyramide trifluoroacetate]	77 nM		
CN[C@@H](C)C(=O)N[C@H]1COc2ccccc2N(Cc2c(C)ccc3ccccc23)C1=O [Example 44]	845 nM		
CN[C@@H](C)C(=O)N[C@H]1COc2ccccc2N(Cc2ccccc2Cl)C1=O [Example 45]	5610 nM		
CN[C@@H](C)C(=O)N[C@H]1COc2ccccc2N(Cc2ccc(Cl)cc2)C1=O [Example 47, (S)-N-((S)-5-(4-Chlorobenzyl)-4-oxo-2,3,4,5-tetrahydrobenzo[b][1,4]oxazepin-3-yl)-2-(methylamino)propanamide]	6030 nM		
[2H]C([2H])([2H])C([2H])([2H])N[C@@H](C)C(=O)N[C@H]1COc2ccccc2N(Cc2nn(-c3ccccc3C#N)c3ccccc23)C1=O [Example 70, (S)-N-((S)-5-((1-(2-Cyanophenyl)-1H-indazol-3-yl)methyl)-4-oxo-2,3,4,5-tetrahydrobenzo[b][1,4]oxazepin-3-yl)-2-(ethyl-d5-amino)propanamide]	183 nM	> 54800 nM	
CN[C@@H](C)C(=O)N[C@@H]1C(=O)N(Cc2noc3ccccc23)c2ccccc2OC12CCOCC2 [Example 84, (S)-N-((S)-5-(Benzo[d]isoxazol-3-ylmethyl)-4-oxo-2′,3′,4,5,5′,6′-hexahydro-3H-spiro[benzo[b][1,4]oxazepine-2,4′-pyran]-3-yl)-2-(methylamino)propanamide hydrochloride]	569 nM		
CN[C@@H](C)C(=O)N[C@@H]1C(=O)N(Cc2c(OC(F)F)ccc3ccccc23)c2ccccc2OC12CCOCC2 [Example 85, (S)-N-((S)-5-((2-(Difluoromethoxy)naphthalen-1-yl)methyl)-4-oxo-2′,3′,4,5,5′,6′-hexahydro-3H-spiro[benzo[b][1,4]oxazepine-2,4′-pyran]-3-yl)-2-(methylamino)propanamide hydrochloride]	410 nM		
CN[C@@H](C)C(=O)N[C@H]1C(=O)N(Cc2c(OC(F)F)ccc3ccccc23)c2ccccc2OC12CCOCC2 [Example 86, (S)-N-((R)-5-((2-(Difluoromethoxy)naphthalen-1-yl)methyl)-4-oxo-2′,3′,4,5,5′,6′-hexahydro-3H-spiro[benzo[b][1,4]oxazepine-2,4′-pyran]-3-yl)-2-(methylamino)propanamide hydrochloride]			6410 nM
